Apparent affinities of Ab-95 variants for a coronavirus HR2 peptide

Target peptide (SARS-CoV-2 spike, HR2 region): PDVDLGDISGINAS

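The library (AAYL52) carries one to three amino acid substitutions per variant, with no insertions or deletions. AlphaSeq pools MATa yeast showing the antibodies with MATalpha yeast showing the peptide. Pairs that bind mate more often; barcode pairs of the diploids are counted by sequencing. Read counts were normalised to the haploid input and turned into Kd by a linear fit to BCL2-family pairs of known affinity, for each replicate. The assay was run in three technical replicates.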

Parent scFv Ab-95: VH joined to VL by the linker GGGGSGGGGSGGGGS. Changes lie in the light chain CDRs alone.
VH: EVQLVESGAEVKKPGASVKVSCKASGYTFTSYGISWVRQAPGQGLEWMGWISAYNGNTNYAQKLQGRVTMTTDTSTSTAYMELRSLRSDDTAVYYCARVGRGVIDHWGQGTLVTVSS
VL: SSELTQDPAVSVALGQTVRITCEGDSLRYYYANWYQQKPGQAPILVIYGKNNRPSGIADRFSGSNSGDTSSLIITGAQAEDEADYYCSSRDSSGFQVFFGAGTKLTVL

Positions count from residue 1 of the parent VL; R28C puts C in place of R. Values are apparent Kd, the geometric mean of the replicates that gave a signal; lower means stronger binding. An entry "no signal" has no value in the source: the pair was not observed among the diploids in any replicate. This suggests poor binding but is not conclusive. For reference, the parent read 200 nM as the reference entry and 180 nM as a member of this library.

| changes | apparent Kd | replicates with signal |
|---|---|---|
| R28C Y29V Q96W | 56 µM | 1/3 |
| E23D A32P V97Y | 46 nM | 3/3 |
| L27R S55Y S88T | 3.2 µM | 2/3 |
| S26T S89C S92T | 5.0 µM | 3/3 |
| S89I G94K Q96M | 500 µM | 2/3 |
| E23S S92T F95N | 500 nM | 3/3 |
| Y29T S89T F98N | 600 nM | 2/3 |
| A32M R53N S55P | 240 nM | 3/3 |
| Y31H S88N G94D | 33 nM | 3/3 |
| G49L R90V S92T | no signal | 0/3 |
| A32M N52H Q96I | no signal | 0/3 |
| G24R S26Q A32P | 570 nM | 2/3 |
| Y31M F95W F98W | 1.7 µM | 2/3 |
| N51P S92I F98P | no signal | 0/3 |
| S26Q S88N S92F | 510 nM | 1/3 |
| S26G Y29S S92F | 650 nM | 3/3 |
| R28N R53T S89G | 1.3 µM | 2/3 |
| E23W N52Y D91K | 76 µM | 1/3 |
| S55H S89I F95S | 8.0 µM | 2/3 |
| L27I P54A G94L | 1.5 µM | 3/3 |
| Y29T N51R S89R | 270 µM | 1/3 |
| R90N D91S G94P | 130 µM | 1/3 |
| D25W S26N Y31G | 1.6 µM | 3/3 |
| N33E K50S S55E | no signal | 0/3 |
| K50Q D91S S92D | 110 nM | 3/3 |
| R53V S88E S89N | 4.1 µM | 2/3 |
| L27E Y31G F98L | 1.3 µM | 3/3 |
| D25A K50T S93Y | 3.5 µM | 3/3 |
| G24A L27Y A32W | 22 µM | 3/3 |
| G49E S89D S93F | 2.5 µM | 2/3 |
| N33D R90F S93V | 150 µM | 1/3 |
| G49E S55F S89K | 22 µM | 1/3 |
| N51Q F95N | 1.5 µM | 3/3 |
| A32T D91N G94C | 370 nM | 3/3 |
| G49T S93T G94L | 7.5 µM | 1/3 |
| L27K S93E Q96E | 6.0 µM | 1/3 |
| G24P Y31G F98Y | 610 µM | 1/3 |
| A32R R90W F95D | 21 µM | 2/3 |
| Y31C N52H S55D | 300 nM | 3/3 |
| D91A S92A | 1.2 µM | 3/3 |
| D25S R53S S89G | 790 nM | 3/3 |
| G49K P54M | no signal | 0/3 |
| A32Q N51Q D91M | no signal | 0/3 |
| Y29R Y31T R53W | 3.5 µM | 3/3 |
| E23M G24T R28W | no signal | 0/3 |
| R53N S88T D91Q | 49 µM | 1/3 |
| D91P V97Y F98G | 56 nM | 3/3 |
| P54N S89E Q96Y | 1.3 µM | 2/3 |
| G24N G94N | 71 µM | 1/3 |

Extract of 7 entries:

{"changes": "A32M R53N S55P", "apparent Kd": "240 nM", "replicates with signal": "3/3"}
{"changes": "R90N D91S G94P", "apparent Kd": "130 µM", "replicates with signal": "1/3"}
{"changes": "N51Q F95N", "apparent Kd": "1.5 µM", "replicates with signal": "3/3"}
{"changes": "G49E S55F S89K", "apparent Kd": "22 µM", "replicates with signal": "1/3"}
{"changes": "Y31M F95W F98W", "apparent Kd": "1.7 µM", "replicates with signal": "2/3"}
{"changes": "E23D A32P V97Y", "apparent Kd": "46 nM", "replicates with signal": "3/3"}
{"changes": "E23W N52Y D91K", "apparent Kd": "76 µM", "replicates with signal": "1/3"}

As a blank, each scFv also met three strains without target: over library AAYL52, 28% of these pairings were detected, typically at 8.2 µM and seldom below 800 nM.

Data: MIT Lincoln Laboratory AlphaSeq set, Engelhart et al. 2022, doi:10.1038/s41597-022-01779-4, as distributed in FLAb.